# Laboratory results as given in patent publication US11643403B2 (ILDONG PHARMACEUTICAL CO., LTD., priority 2019, dated 2023).
# Experiments:
# [1] = Intravenous glucose tolerance test (ivGTT) via intravenous administration, plasma insulin ELISA; type: in vivo; conditions: test substance 1 mg/mL/kg intravenously, glucose 0.25 g/kg iv, maximum plasma insulin
# Description: Before the intravenous glucose tolerance test (ivGTT) was performed, monkeys to be used in the test were fasted for 16 hours. After the fasting, fasting blood sugar was measured on the day of the test, and the monkeys were grouped to minimize blood sugar deviation. Each of the monkeys was fixed on a correction chair and anesthetized. A tube catheter was inserted into a saphenous vein of the monkey immediately before glucose administration (0 minute), and the test substance (1 mg/mL/kg) was administered intravenously. After the drug administration, glucose (0.25 g/kg, 50% dextrose solution 0.5 mL/kg) was intravenously administered through the tube catheter inserted into the vein. […] The separated plasma samples were stored in a frozen state until insulin analysis.
# (§1) The frozen plasma samples were slowly thawed on ice. An ELISA test was performed according to a protocol provided with a Monkey insulin ELISA kit (LSBio, Cat No. LS-F10306). An insulin concentration was calculated by drawing a standard curve using the absorbance of the insulin standard and applying the absorbance of each measured sample thereto.
# [2] = Intravenous glucose tolerance test (ivGTT) via oral administration, plasma insulin ELISA; type: in vivo; conditions: test substance 50 mg/5 mL/kg orally 60 minutes before glucose 0.25 g/kg iv, maximum plasma insulin
# Description: Before performing the ivGTT, the monkeys to be used in the test were fasted for 16 hours. After the fasting, fasting blood sugar was measured on the day of the test, and then the monkeys were grouped to minimize blood sugar deviation. On 60 minutes before glucose administration (−60 minutes), each of the monkeys was fixed on a correction chair, and the test substance (50 mg/5 mL/kg) was administered orally using a catheter for oral administration. The monkey fixed on the correction chair was anesthetized, and glucose (0.25 g/kg, 50% dextrose solution 0.5 mL/kg) was intravenously administered through a tube catheter inserted into the vein. […] The separated plasma samples were stored in a frozen state until insulin analysis.
# as §1
Compound,Monkey ivGTT (iv) insulinmax (IU/mL) [1],Monkey ivGTT (po) insulinmax [2]
"N#Cc1ccc(COc2cccc(C3CCN(Cc4nc5ccc(C(=O)O)nc5n4C[C@@H]4CCO4)CC3)c2)c(F)c1 [Example 3, (S)-2-((4-(3-((4-cyano-2-fluorobenzyl)oxy)phenyl)piperidin-1-yl)methyl)-3-(oxetan-2-yl-methyl)-3H-imidazo[4,5-b]pyridine-5-carboxylic acid]",++ (a maximum insulin concentration is greater than 250 IU/mL),++ (a maximum insulin concentration is greater than 100 IU/mL)
"C[C@H]1CN(c2cncc(OCc3ccc(C#N)cc3F)n2)CCN1Cc1nc2ccc(C(=O)O)cc2n1C[C@@H]1CCO1 [Example 4, 2-(((S)-4-(6-((4-cyano-2-fluorobenzyl)oxy)pyrazin-2-yl)-2-methylpiperazin-1-yl)methyl)-1-(((S)-oxetan-2-yl)methyl)-1H-benzo[d] imidazole-6-carboxylic acid]",++ (a maximum insulin concentration is greater than 250 IU/mL),++ (a maximum insulin concentration is greater than 100 IU/mL)
"N#Cc1ccc(COc2cccc(N3CCN(Cc4nc5ccc(C(=O)O)cc5n4CC4(F)CC4)CC3)c2)c(F)c1 [Example 11, 2-((4-(3-((4-cyano-2-fluorobenzyl)oxy)phenyl)piperazin-1-yl)methyl)-1-((1-fluorocyclopropyl)methyl)-1H-benzo[d]imidazole-6-carboxylic acid]",–,++ (a maximum insulin concentration is greater than 100 IU/mL)
